pIC50: −log10 of the molar value.
Molecular target: Human mTOR (Homo sapiens, UniProt P42345)
Assay: mTOR kinase assay (DELFIA format, purified enzyme)
Type: biochemical
Parameters: FLAG
Conditions: read-out: TOR Kinase IC50

pIC50 | Molecule
5.92 | Cn1ccc2c3nc(-c4ccc(NS(C)(=O)=O)cc4)nc(N4CCOCC4)c3ccc21 [Example 21, N-[4-(7-methyl-4-morpholin-4-yl-7H-pyrrolo[2,3-h]quinazolin-2-yl)phenyl]methanesulfonamide]
5.92 | Cn1ccc2c3nc(-c4cccc(F)c4)nc(N4CCOCC4)c3ccc21 [Example 52, 2-(3-fluorophenyl)-7-methyl-4-morpholin-4-yl-7H-pyrrolo[2,3-h]quinazoline]
5.92 | Cn1ccc2c3nc(-c4cccc(NC(=O)Nc5ccncc5)c4)nc(N4CCOCC4)c3ccc21 [Example 122, 1-[3-(7-methyl-4-morpholin-4-yl-7H-pyrrolo[2,3-h]quinazolin-2-yl)phenyl]-3-pyridin-4-ylurea]

Molecule | pIC50
3-(7-methyl-4-morpholin-4-yl-7H-pyrrolo[2,3-h]quinazolin-2-yl)phenyl]methanol [Example 37] | 5.92

From patent US20090227575A1, “7H-PYRROLO[2,3-H]QUINAZOLINE COMPOUNDS, THEIR USE AS mTOR KINASE AND PI3 KINASE INHIBITORS, AND THEIR [sequence]” (Wyeth, priority 2008, published 2009)
